Test results as given in article PMC5727386.

Biological target: Bcr-Abl DH domain (residues 487–702) (UniProt P11274)
Experiment: NMR titration; GTPase titrated to 50 μM 15N-labeled DH domain; 50 mM HEPES pH 7, 50 mM NaCl, 1 mM DTT, 1 mM imidazole, 2 mM EDTA; [15N,1H]-TROSY; about 10 peaks fitted to a 1:1 binding model, mean Kd

“Rac1 (from UniProt P63000 1-192) (enzyme)” was tested, and the Kd was 800 µM.
